From patent US5840838

Target: Glutamine synthetase (GS) in brain cytosolic extract from male mongolian gerbil cortical homogenate (mongolian gerbil)

Row | loss of GS activity after 3 hours coincubation at 37 C (colorimetric GS assay), relative to initial activity | Substance
1 | > 90% | TFE-treated Aβ(1-40) (synthetic amyloid beta peptide, Bachem lot ZM094, after trifluoroethanol solvation and evaporation)
2 | 45% | Aβ(1-40), native, unmodified synthetic amyloid beta peptide (Bachem lot ZM094)
